From patent US20230257479A1 (Genmab, published 2023)

Tests used:
[1] = target: T1, human 5T4ECDHis (mature protein of SEQ ID NO: 99) (human, UniProt Q13641 32-355); assay: BLI cross-block; competitor (immobilised): IgG1-5T4-127-FEAR
T1 construct: ECD of human 5T4 (aa 1-355 of Uniprot Q13641) with C-terminal His tag; residues 1-31 are the signal peptide; also called ECD of human 5T4 with a C-terminal His tag
T1 sequence: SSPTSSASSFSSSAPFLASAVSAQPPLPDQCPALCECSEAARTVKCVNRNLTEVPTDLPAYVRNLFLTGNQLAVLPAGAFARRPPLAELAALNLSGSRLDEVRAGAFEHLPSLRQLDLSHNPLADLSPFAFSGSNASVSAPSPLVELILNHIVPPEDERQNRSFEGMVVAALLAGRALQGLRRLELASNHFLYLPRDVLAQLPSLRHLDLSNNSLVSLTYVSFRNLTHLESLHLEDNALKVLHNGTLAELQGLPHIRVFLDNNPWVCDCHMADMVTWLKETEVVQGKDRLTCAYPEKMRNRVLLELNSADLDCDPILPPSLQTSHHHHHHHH

[2] = target: T1, human 5T4ECDHis (mature protein of SEQ …); assay: BLI cross-block; competitor (immobilised): IgG1-5T4-059-FEAR
[3] = target: T1, human 5T4ECDHis (mature protein of SEQ …); assay: BLI, antibody on anti-human IgG Fc Capture biosensor, antigen in solution
[4] = target: T2, full length cynomolgus monkey 5T4 on transfected HEK-293 cells (cynomolgus monkey, UniProt Q4R8Y9 35-420); assay: flow cytometry, HEK-293 cells transfected with cynomolgus monkey 5T4, PE secondary [II)C]
T2 construct: Uniprot Q4R8Y9; residues 1-34 are the signal peptide; also called cynomolgus 5T4
T2 sequence: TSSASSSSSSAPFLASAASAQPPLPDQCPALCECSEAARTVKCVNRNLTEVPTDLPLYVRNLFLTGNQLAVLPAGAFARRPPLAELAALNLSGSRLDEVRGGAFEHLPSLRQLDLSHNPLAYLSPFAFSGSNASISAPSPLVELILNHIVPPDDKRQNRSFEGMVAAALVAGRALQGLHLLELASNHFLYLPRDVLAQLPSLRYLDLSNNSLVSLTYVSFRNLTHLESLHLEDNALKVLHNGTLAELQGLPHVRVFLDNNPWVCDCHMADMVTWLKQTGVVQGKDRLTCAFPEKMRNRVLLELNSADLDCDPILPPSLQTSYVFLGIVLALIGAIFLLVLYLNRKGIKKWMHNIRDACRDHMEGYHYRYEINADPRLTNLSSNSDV

[5] = target: T1, human 5T4ECDHis (mature protein of SEQ …); assay: BLI cross-block; competitor (immobilised): IgG1-5T4-085-FEAR
[6] = target: T3, full length human 5T4 (SEQ ID NO: 1) on cells (human, UniProt Q13641 32-420); assay: flow cytometry, MDA-MB-231 cells, FITC secondary [I)B]
T3 construct: Uniprot Q13641; residues 1-31 are the signal peptide; Used both for transfected HEK-293 cells and for 5T4-expressing human tumor cell lines
T3 sequence: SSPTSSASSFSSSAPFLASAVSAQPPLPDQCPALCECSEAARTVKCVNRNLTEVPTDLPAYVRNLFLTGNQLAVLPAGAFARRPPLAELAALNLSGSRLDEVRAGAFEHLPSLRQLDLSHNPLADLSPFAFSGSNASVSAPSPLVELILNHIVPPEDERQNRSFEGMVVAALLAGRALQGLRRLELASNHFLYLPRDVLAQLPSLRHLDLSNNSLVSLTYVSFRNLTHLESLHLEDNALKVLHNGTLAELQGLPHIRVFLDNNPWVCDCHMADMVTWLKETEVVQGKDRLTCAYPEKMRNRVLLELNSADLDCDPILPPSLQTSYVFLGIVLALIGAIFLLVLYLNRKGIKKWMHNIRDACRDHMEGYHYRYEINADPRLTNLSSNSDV

[7] = target: T1, human 5T4ECDHis (mature protein of SEQ …); assay: BLI cross-block; competitor (immobilised): IgG1-5T4-076-FEAR
[8] = target: T3, full length human 5T4 (SEQ ID NO: 1) on …; assay: flow cytometry, HeLa cells, FITC secondary [I)B]
[9] = target: T1, human 5T4ECDHis (mature protein of SEQ …); assay: BLI cross-block; competitor (immobilised): IgG1-5T4-106-FEAR
[10] = target: T3, full length human 5T4 (SEQ ID NO: 1) on …; assay: flow cytometry, HeLa cells, PE secondary [II)C]
[11] = target: T4, recombinant cynomolgus monkey 5T4 protein (Cusabio; cat. no. CSB-MP024093MOV) (cynomolgus monkey, UniProt Q4R8Y9 35-355); assay: BLI, antibody on anti-human IgG Fc Capture biosensor, antigen in solution
T4 construct: extracellular domain; Bought protein; also called cynomolgus 5T4; cynomolgus monkey 5T4 extracellular domain
T4 sequence (looked up): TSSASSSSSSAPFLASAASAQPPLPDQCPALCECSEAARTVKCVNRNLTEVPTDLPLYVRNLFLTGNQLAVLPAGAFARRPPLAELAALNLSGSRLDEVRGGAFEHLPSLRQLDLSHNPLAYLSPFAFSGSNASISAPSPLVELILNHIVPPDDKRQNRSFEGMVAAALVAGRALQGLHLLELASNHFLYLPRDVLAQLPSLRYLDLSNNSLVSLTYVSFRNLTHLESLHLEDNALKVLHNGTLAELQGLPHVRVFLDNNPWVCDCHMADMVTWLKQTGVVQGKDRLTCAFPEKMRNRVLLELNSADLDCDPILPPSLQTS

[12] = target: T3, full length human 5T4 (SEQ ID NO: 1) on …; assay: flow cytometry, MDA-MB-231 cells, PE secondary [III)C]
[13] = target: T1, human 5T4ECDHis (mature protein of SEQ …); assay: BLI cross-block; competitor (immobilised): IgG1-5T4-207-FEAR
[14] = target: T3, full length human 5T4 (SEQ ID NO: 1) on …; assay: flow cytometry, HEK-293 cells transfected with human 5T4, PE secondary [II)C]
[15] = target: T1, human 5T4ECDHis (mature protein of SEQ …); assay: BLI cross-block; competitor (immobilised): IgG1-5T4-H8-FEAR
[16] = target: T1, human 5T4ECDHis (mature protein of SEQ …); assay: BLI cross-block; competitor (immobilised): IgG1-5T4-226-FEAR
[17] = target: T1, human 5T4ECDHis (mature protein of SEQ …); assay: BLI cross-block; competitor (immobilised): IgG1-5T4-A1-F405L

B1: IgG1-5T4-059-FEAR (antibody, V domains shown)
VH: QVQLVESGGGVVQPGRSLRLSCAVSGFTFSSYDMNWVRQAPGKGLEWVTFISYDGSNKYNADSVKGRFTISRDNSKNTLYLQMNSLRAEDTAVYYCARDSYSRSWYGDYYGMDVWGQGTTVTVSS
VL: DIQMTQSPSSLSASVGDRVTITCRASQGISSWLAWYQQKPEKAPKSLIYAASSLQSGVPSRFSGSGSGTDFTLTISSLQPEDFATYYCQQYNSYPLTFGGGTKVEIK
notes: Monospecific, bivalent human IgG1 kappa with L234F, L235E, D265A, K409R (FEAR); also called IgG1-5T4-059-04-FEAR
- corrected association response [1]: -0.05 nm
- corrected association response [2]: 0.01 nm
- Kd [3]: 1.5 nM
- koff [3]: 0.00032 s⁻¹
- kon [3]: 210000 M⁻¹ s⁻¹
- EC50 (read off the curve) [4]: ~0.05 µg/mL
- corrected association response [5]: -0.04 nm
- EC50 (read off the curve) [6]: ~0.1 µg/mL
- corrected association response [7]: -0.02 nm
- EC50 (read off the curve) [8]: ~0.05 µg/mL
- corrected association response [9]: -0.03 nm
- EC50 (read off the curve) [10]: ~0.04 µg/mL
- Kd [11]: 1.8 nM
- koff [11]: 0.00028 s⁻¹
- kon [11]: 160000 M⁻¹ s⁻¹
- EC50 (read off the curve) [12]: ~0.03 µg/mL
- corrected association response [13]: -0.02 nm
- EC50 (read off the curve) [14]: ~0.08 µg/mL
- corrected association response [15]: -0.02 nm
- corrected association response [16]: -0.02 nm
- corrected association response [17]: 0.91 nm
